“Also recorded” adds a separate entry of the source.
Legend:
[1] = Small-animal PET imaging, ROI analysis; type: in vivo, mice; settings: female, athymic nude, mouse, tumor (MDA-MB-435), iv, 3.7 MBq, total radioactivity
[2] = Ex vivo biodistribution; type: in vivo, mice; settings: female, athymic nude, mouse, iv, 3.7 MBq, total radioactivity
How it was run: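 Female athymic nude mice carried UM-SCC1 xenografts (6×10^6 cells s.c., right front flank, PBS:Matrigel 1:1) grown to 200–500 mm3. Each received 3.7 MBq of the 18F-labeled test peptide i.v. under isoflurane. Mice were killed at 1 or 2 h p.i., right after imaging. Blood, tumor and organs were weighed wet and γ-counted against an aliquot of injected tracer, then normalized to group mean body mass. Results are %ID/g, means±SD, n=4/group.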

[3] = system: UM-SCC1 cells; test: Cell uptake and internalization of ^18F-FP-QQM; type: cell-based, human; settings: for cell uptake with blocking, percentage of total input radioactivity: 37°C, in presence of 1 μM non-radiolabeled QQM peptide
How it was run: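 UM-SCC1 cells were seeded at 1×10^5 per well and grown overnight. They were then incubated at 37°C for 15, 30 or 60 min with about 37 kBq (1 μCi) per well of the 18F-labeled test peptide plus unlabeled test peptide (1 μM final) to block specific binding. Cells were washed three times with chilled PBS, lysed in 0.1 N NaOH and γ-counted. Uptake is given as % of decay-corrected total input. Two experiments, triplicate wells.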

[4] = system: UM-SCC1 tumor-bearing mice; test: Small-animal PET imaging, ROI analysis; type: in vivo
How it was run: (§1)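 UM-SCC1 tumor-bearing nude mice (n=6) received 3.7 MBq (100 μCi) of the 18F-labeled test peptide i.v. under isoflurane. Static microPET scans were taken at 15, 30 and 60 min p.i. (5 min each) and at 2 h p.i. (10 min). ROI mean pixel values were converted to MBq/ml/min assuming tissue density of 1 g/ml. %ID/g was calculated as ROI concentration divided by administered activity.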

[5] = Small-animal PET imaging, ROI analysis; type: in vivo, mice; settings: female, athymic nude, mouse, iv, 3.7 MBq, total radioactivity
How it was run: as §1

Question: Which tissue uptake at 0.5 h [1] does the source give for CC[C@H](C)[C@H](NC(=O)[C@H](Cc1ccc(O)cc1)NC(=O)[C@H](CC(C)C)NC(=O)[C@@H]1CCCN1C(=O)[C@H](CC(C)C)NC(=O)[C@H](CCCNC(=N)N)NC(=O)[C@H](CC(=O)O)NC(=O)[C@H](CC(N)=O)NC(=O)[C@H](Cc1ccc(O)cc1)NC(=O)[C@@H](N)CCCCNC(=O)C(C)F)C(=O)N[C@@H](CO)C(=O)N[C@@H](CC(N)=O)C(=O)N1CCC[C@H]1C(=O)O (some centres unmarked) [^18F-FP-QQM] here?
Answer: The tissue uptake at 0.5 h was 1.64 ± 0.24 %ID/g.

Question: And the tissue uptake at 1 h [1]?
Answer: The tissue uptake at 1 h was 1.38 ± 0.56 %ID/g.

Question: What about the tissue uptake at 1 h ([2]; kidneys) of the same compound?
Answer: Its tissue uptake at 1 h is 5.21 ± 2.67 %ID/g.

Question: What about the tissue uptake at 1 h ([2]; lung) of the same compound?
Answer: Its tissue uptake at 1 h is 3.19 ± 1.44 %ID/g.

Question: What about the tissue uptake at 1 h ([2]; pancreas) of the same compound?
Answer: Its tissue uptake at 1 h is 5.24 ± 2.66 %ID/g.

Question: And the tissue uptake at 1 h ([2]; tumor (UM-SCC1))?
Answer: The tissue uptake at 1 h was 3.45 ± 0.95 %ID/g.

Question: And the tissue uptake at 2 h ([2]; tumor (UM-SCC1))?
Answer: Its tissue uptake at 2 h is 2.03 ± 0.29 %ID/g.

Question: What about the “cell uptake with blocking, percentage of total input radioactivity” value (“cell uptake with blocking, percentage” for short) ([3]; 15 min) of the same compound?
Answer: Its value is 0.48±0.06%.

Question: And the “cell uptake with blocking, percentage” value ([3]; 30 min)?
Answer: The value was 0.63±0.07%.

Question: What about the “cell uptake with blocking, percentage” value ([3]; 60 min) of the same compound?
Answer: Its value is 1.08±0.13%.

Question: What about the internalization into cells ([3]; acid wash (50 mM glycine-HCl/100 mM NaCl, pH 2.8), after 15 min incubation at 37°C) of the same compound?
Answer: Its internalization into cells is “almost completely internalized”.

Question: And the “bone uptake (defluoridation)” value ([4]; PET imaging up to 120 min p.i.)?
Answer: The value was “No bone uptake was observed”.

Question: And the route of excretion ([4]; PET imaging, i.v. injection)?
Answer: Its route of excretion is “predominantly renal clearance; also recorded: excreted mainly through the renal/urinary route”.

Question: And the tissue uptake at 0.25 h ([5]; kidney)?
Answer: The tissue uptake at 0.25 h was 16.4 ± 2.69 %ID/g.

Question: What about the tissue uptake at 0.5 h ([5]; kidney) of the same compound?
Answer: The tissue uptake at 0.5 h was 11.4 ± 5.7 %ID/g.

Question: And the tissue uptake at 1 h ([5]; kidney)?
Answer: The tissue uptake at 1 h was 6 ± 2.92 %ID/g.

Question: What about the tissue uptake at 2 h ([5]; kidney) of the same compound?
Answer: Its tissue uptake at 2 h is 2.06 ± 0.36 %ID/g.

Question: And the tissue uptake at 0.25 h ([5]; liver)?
Answer: Its tissue uptake at 0.25 h is 8.47 ± 1.19 %ID/g.

Question: And the tissue uptake at 0.5 h ([5]; liver)?
Answer: Its tissue uptake at 0.5 h is 4.23 ± 3.2 %ID/g.

Question: And the tissue uptake at 1 h ([5]; liver)?
Answer: Its tissue uptake at 1 h is 3.84 ± 2.49 %ID/g.

Question: And the tissue uptake at 2 h ([5]; liver)?
Answer: Its tissue uptake at 2 h is 1.63 ± 0.51 %ID/g.

Question: What about the tissue uptake at 0.5 h ([5]; tumor (UM-SCC1)) of the same compound?
Answer: Its tissue uptake at 0.5 h is 3.73 ± 0.56 %ID/g.

Question: And the tissue uptake at 1 h ([5]; tumor (UM-SCC1))?
Answer: The tissue uptake at 1 h was 2.96 ± 0.84 %ID/g.

Source: PMC3200564 (European journal of nuclear medicine and molecular imaging, 2011)
